The target of the assay is Bromodomain-containing protein 4 (Homo sapiens, UniProt O60885). As to the kind of experiment: Selectivity index, ratio of IC50 for human recombinant BRD4 BD1 (42 to 167 residues) extracted from Escherichia coli BL21 (DE3) to IC50 for human recombinant BRD4 BD2 (349 to 460 residues) extracted from Escherichia coli BL21 (DE3).

Take `COc1ccc(/C=C/c2nc3cc(OC)cc(OC)c3c(=O)[nH]2)cc1`: the Ratio IC50 was found to be 32.
In the case of `COc1cccc(/C=C/c2nc3cc(OC)cc(OC)c3c(=O)[nH]2)c1`, the Ratio IC50 was above 10.

The values above are taken from ChEMBL document CHEMBL6121006, “Marine natural product-inspired discovery of novel BRD4 inhibitors with anti-inflammatory activity” (Eur J Med Chem, 2025).
